Results published in patent US20150183802A1, “TRICYCLIC SULFONAMIDE DERIVATIVES” (NOVARTIS AG, priority 2013, published 2015).

By UniProt entry, the sequences of proteins in these tests, tags left out.
UniProt Q15858, whole entry: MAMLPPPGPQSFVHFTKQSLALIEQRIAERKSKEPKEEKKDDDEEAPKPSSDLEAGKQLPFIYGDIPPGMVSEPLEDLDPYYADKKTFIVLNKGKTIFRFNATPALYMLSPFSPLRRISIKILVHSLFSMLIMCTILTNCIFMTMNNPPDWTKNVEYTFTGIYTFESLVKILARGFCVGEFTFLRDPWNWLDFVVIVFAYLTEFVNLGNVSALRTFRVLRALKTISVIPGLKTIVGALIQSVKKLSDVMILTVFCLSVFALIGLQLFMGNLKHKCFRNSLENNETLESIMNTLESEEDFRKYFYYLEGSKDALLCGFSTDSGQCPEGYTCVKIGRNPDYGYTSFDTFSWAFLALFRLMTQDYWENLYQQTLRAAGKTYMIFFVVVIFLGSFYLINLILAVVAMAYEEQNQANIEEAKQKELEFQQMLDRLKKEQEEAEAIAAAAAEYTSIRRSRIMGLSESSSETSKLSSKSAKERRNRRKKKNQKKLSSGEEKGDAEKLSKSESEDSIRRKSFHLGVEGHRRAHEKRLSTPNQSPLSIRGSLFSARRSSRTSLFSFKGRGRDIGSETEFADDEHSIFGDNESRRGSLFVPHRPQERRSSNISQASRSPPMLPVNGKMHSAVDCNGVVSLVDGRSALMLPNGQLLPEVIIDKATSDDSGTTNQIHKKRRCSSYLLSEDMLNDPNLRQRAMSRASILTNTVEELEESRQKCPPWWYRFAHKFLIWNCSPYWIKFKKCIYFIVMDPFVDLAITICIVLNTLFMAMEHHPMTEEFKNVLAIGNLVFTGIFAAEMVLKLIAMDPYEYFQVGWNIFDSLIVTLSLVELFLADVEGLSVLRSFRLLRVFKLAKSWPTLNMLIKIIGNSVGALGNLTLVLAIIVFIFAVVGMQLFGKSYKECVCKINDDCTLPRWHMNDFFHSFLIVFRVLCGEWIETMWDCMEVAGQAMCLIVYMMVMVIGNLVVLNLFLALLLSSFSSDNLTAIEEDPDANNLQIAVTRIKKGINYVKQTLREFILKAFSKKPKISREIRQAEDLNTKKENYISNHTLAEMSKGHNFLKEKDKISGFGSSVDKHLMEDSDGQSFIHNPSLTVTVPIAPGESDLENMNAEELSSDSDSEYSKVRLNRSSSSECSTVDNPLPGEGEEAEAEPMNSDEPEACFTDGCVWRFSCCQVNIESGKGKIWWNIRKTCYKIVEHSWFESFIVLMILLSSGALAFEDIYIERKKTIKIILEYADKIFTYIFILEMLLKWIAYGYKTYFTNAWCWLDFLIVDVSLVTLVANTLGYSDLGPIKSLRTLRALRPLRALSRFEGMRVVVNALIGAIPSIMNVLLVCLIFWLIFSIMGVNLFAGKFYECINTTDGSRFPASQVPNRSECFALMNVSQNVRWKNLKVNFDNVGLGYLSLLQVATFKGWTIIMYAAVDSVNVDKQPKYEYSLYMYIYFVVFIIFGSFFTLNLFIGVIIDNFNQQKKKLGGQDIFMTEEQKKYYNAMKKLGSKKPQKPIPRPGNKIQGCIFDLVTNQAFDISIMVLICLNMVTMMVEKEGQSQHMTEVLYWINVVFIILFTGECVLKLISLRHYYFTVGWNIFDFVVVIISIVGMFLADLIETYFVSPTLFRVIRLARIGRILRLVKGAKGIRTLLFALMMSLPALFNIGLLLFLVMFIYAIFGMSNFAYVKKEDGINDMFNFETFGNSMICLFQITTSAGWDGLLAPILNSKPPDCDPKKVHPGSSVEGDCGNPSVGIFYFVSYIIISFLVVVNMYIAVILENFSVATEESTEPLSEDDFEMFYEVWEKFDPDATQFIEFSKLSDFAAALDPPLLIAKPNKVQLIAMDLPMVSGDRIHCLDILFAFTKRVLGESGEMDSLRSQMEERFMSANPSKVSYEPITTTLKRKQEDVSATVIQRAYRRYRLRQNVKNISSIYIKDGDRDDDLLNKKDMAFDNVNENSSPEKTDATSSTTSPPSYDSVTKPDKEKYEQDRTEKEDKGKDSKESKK

Biological target: hNav1.7 channels (Homo sapiens, UniProt Q15858)
Assay: hNav1.7 channel in vitro patch-clamp assay
Settings: stable HEK293 cell line expressing hNav1.7; whole cell patch-clamp (QPatch HTX and/or conventional), room temperature; voltage protocol not given
Procedure: hNav1.7 Channel In Vitro Patch-Clamp Assay
Cells: Sable HEK293 (human embryonic kidney) cell line expressing hNav1.7 channels was used in the assay. The cell line was obtained from Millipore (Millipore Corporation, MA).
Patch-clamp recordings: The recordings were performed on QPatch HTX (Sophion Bioscience, Denmark) and/or conventional patch-clamp (Axon Multiclamp 700B systems, Molecular Devices, CA) platforms at room temperature, using whole cell patch-clamp techniques. The composition of extracellular solution was (in mM): HEPES 5, NaCl 40, KCl 3, CaCl2 1, MgCl2 1, Choline Chloride 100. Adjust pH to 7.2 with 1N NaOH, osmolarity to 300-310 mOsm with sucrose. The composition of intracellular solution was (in mM): HEPES 10, NaCl 10, Na2ATP 1, MgCl2 2, KF 135, EGTA 10. Adjust pH to 7.2 with 1N NaOH, osmolarity to 290-300 mOsm with sucrose.
For conventional patch-clamp, 35 mm culture dishes containing hNav1.7 cells were placed on the stage of an inverted microscope and continuously perfused with extracellular solution from a perfusion system (Biologic Rapid solution changer, RSC-160, ˜1 ml/min). […] The recordings were controlled by pCLAMP10 software. […] Compound effect (% inhibition) was determined by difference in current amplitude before and after the application of test compounds. IC50 values were determined from concentration-response curves that were obtained with Hill fitting. […]

SMILES | IC50 [µM]
CC(C)COc1ncc(-c2ncnc3cc4c(NS(=O)(=O)C5CC5)noc4cc23)cc1Cl | 1.8
CC(C)COc1ncc(-n2cc(C(F)(F)F)c3cc4c(NS(C)(=O)=O)noc4cc32)cc1Cl | 0.03
